The results in this text go back to PubChem BioAssay AID602235 (The Scripps Research Institute Molecular Screening Center, 2012).

Amino acid sequences for entries named in this document (tags omitted). A change or cut given only in a name is not applied to a line headed by its entry.
UniProt Q15788: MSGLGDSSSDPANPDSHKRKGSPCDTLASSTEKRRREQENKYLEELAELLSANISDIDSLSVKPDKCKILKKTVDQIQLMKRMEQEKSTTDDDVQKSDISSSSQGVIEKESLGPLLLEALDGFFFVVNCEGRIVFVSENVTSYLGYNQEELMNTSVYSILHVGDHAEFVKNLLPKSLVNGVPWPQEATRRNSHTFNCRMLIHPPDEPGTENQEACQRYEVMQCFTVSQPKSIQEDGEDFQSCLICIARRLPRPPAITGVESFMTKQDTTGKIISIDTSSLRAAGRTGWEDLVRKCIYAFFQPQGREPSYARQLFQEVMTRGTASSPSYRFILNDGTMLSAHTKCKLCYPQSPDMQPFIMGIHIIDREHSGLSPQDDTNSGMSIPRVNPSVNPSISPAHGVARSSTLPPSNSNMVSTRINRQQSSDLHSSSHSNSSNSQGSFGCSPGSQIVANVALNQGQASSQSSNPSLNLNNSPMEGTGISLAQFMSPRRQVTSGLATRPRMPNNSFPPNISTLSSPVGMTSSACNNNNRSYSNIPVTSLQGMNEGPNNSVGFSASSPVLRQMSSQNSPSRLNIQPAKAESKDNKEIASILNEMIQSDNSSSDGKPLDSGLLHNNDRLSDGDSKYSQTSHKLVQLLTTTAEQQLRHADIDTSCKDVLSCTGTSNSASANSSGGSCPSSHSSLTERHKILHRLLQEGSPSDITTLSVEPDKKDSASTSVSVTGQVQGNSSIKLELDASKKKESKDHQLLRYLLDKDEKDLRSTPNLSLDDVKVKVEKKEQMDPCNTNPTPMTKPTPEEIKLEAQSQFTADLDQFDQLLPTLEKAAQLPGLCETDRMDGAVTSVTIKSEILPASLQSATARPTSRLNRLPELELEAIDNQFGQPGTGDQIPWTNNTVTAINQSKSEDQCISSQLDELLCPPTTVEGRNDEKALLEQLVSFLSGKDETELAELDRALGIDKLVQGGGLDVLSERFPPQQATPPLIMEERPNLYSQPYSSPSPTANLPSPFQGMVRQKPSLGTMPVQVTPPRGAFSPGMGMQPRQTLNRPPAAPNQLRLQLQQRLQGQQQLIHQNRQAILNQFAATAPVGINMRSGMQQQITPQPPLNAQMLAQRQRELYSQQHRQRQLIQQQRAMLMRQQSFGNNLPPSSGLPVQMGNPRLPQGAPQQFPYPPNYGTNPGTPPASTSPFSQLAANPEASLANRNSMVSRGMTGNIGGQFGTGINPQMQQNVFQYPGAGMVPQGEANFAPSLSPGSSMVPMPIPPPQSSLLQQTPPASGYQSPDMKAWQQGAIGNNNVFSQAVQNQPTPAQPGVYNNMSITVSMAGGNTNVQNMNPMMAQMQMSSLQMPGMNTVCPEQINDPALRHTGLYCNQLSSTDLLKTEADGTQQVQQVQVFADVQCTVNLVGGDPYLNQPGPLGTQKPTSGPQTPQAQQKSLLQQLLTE

This assay concerns the target Nuclear receptor coactivator 1 (Homo sapiens) (UniProt Q15788). In words: inhibition of NCOA1 transcriptional coactivation in cells – cell-based, luciferase reporter, luminescence, dose response (AID 602235).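 Also: cells transfected with pGL4.31 reporter plus pBIND-SRC1 vector; potency is for inhibitors that lower SRC1 reporter luminescence.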 The conditions noted are these: cell-based SRC1 luciferase reporter.

One may read the IC50 as the midpoint of a concentration-inhibition curve.

The source made the active and inactive calls. No rule for the calls is given here. Some results are limits rather than exact numbers.

As for `O=C(N/N=C/c1cc(Br)ccc1O)C(c1ccncc1)N1CCOCC1` (configuration not stated), the IC50 is inactive: > 12000 nM.
Next, `COc1cc([C@@H]2c3cc4c(cc3[C@@H](O[C@@H]3O[C@@H]5CO[C@@H](C)O[C@H]5[C@H](O)[C@H]3O)[C@H]3COC(=O)[C@H]23)OCO4)cc(OC)c1O`: 1150 nM.
